Values quoted from earlier work in publication PMC8596132, “Rational Design of a Modality‐Specific Inhibitor of TRPM8 Channel against Oxaliplatin‐Induced Cold Allodynia” (Advanced Science, 2021).

Settings: patients taking the drug; cited from earlier work

oxaliplatin
patients with acute neurotoxicity: up to 89%
